Source: ChEMBL document CHEMBL1127540, “Three-dimensional pharmacophores from binding data” (J Med Chem, 1994)

Molecular target: Human immunodeficiency virus type 1 protease (Human immunodeficiency virus 1, UniProt Q72874)
Assay: Binding affinity to HIV-1 protease

## O=C(CCCN1CCC(O)(c2ccc(Cl)cc2)CC1)c1ccc(F)cc1 [HALOPERIDOL]
  Ki: 100 µM
